Several values for one entry are separate records, joined by “and”; a condition that tells them apart may be missing. Equal entries are not always repeated. Marks after values point to notes of the source that are not given here.
Assays:
[1] = Distribution of Compound 4 and released Compound 1 in tissues (brain, pancreas, rectum, liver, lung; LC/MS)
Experimental: (1) Forty-eight healthy Bar b/c mice, each weighing approximately 20 g, were taken and divided into 3 groups. Blank control group (6 mice), oral gavage administration group (Compound 4 dose: 50 mg/kg, 21 mice), and tail vein injection administration group (Compound 4 dose: 10 mg/kg, 21 mice) (2) For the oral gavage group, blood samples were collected at 5 min, 15 min, 30 min, 1 h, 3 h, 8 h, and 24 h after administration. For the intravenous injection group, blood samples were collected at 2 min, 5 min, 15 min, 30 min, 1 h, 3 h, 8 h, and 24 h after administration. Blood was collected from mice via eyeball removal and placed in anticoagulant tubes containing sodium heparin. The samples were immediately centrifuged at 5000 rpm at low temperature (4°C) for 10 min to obtain plasma samples. The samples were stored in a -80°C freezer for analysis. Three mice were used per time point. (3) The mouse was fixed on a foam board. The skin on the chest was lifted with forceps, and the thoracic skin and ribs were cut open with scissors to expose the heart and liver. The auricle was then cut open. A syringe needle was inserted into the left ventricle of the mouse, and normal saline was perfused for approximately 1 min (10-20 mL) until the mouse's limbs, liver, and tongue turned pale. Brain collection: The skin on the head was cut open to expose the white skull. The cartilage was cut, the skull cap was carefully pried open to expose the white brain, and the entire brain was dissected out. Tissues such as the pancreas, liver, lung, and rectum were also collected. The samples were stored in a -80°C freezer for analysis. (4) The contents of Compound 4 and Compound 1 in peripheral blood and tissues were detected by LC/MS. MS/MS information

H520 = assay: Anticancer activity test (CCK-8), H520 cells; settings: 72 h, Table 1-1
Experimental: Cells in logarithmic growth phase were digested, centrifuged, and counted; the cell suspension was adjusted to a concentration of 1500-3500 cells/well, and 95 µL was seeded into each well of a 96-well plate.
After continued overnight culture, drugs at different concentrations were added to the plate, with six replicate wells for each concentration. 10 µL of the drug was added to each well, followed by incubation for 72 h. Then, 10 µL of CCK-8 solution was added to each well (care should be taken to avoid generating bubbles in the wells, as they can affect the OD reading). After incubation in the incubator for 1-4 h, the OD value at 450 nm was measured using a microplate reader. The experiment to assess the effect of each drug on each cell line at different time points was repeated three times.
Data were processed using EXCEL software to calculate the inhibition rate at different concentrations, and SPSS was used to fit the IC50 value. EXCEL was used to calculate the mean and standard deviation of the three IC50 values. Inhibition rate % = {1 - (OD value of drug well - OD value of blank well) / (OD value of control well - OD value of blank well) } * 100%. Table 1-1 Activity of Compounds in Inhibiting Cancer Cells

[2] = Brain, po (50 mg/kg) Compound 4
[3] = Liver, po (50 mg/kg) Compound 4
[4] = Pancreas, iv (10mg/kg) Compound 4
[5] = Pancreas, po (50 mg/kg) Compound 4
[6] = Rectum, iv (10mg/kg) Compound 4
[7] = Rectum, po (50 mg/kg) Compound 4
[8] = iv (10 mg/kg) Compound 4, 2 min, Mean
[9] = iv (10 mg/kg) Compound 4, 2 min, individual mice, 10 mg/kg
[10] = iv (10 mg/kg) Compound 4, 5min, Mean
[11] = iv (10 mg/kg) Compound 4, 5min, individual mice, 10 mg/kg
[12] = iv (10 mg/kg) Compound 4, 15min, Mean
[13] = iv (10 mg/kg) Compound 4, 15min, individual mice, 10 mg/kg
[14] = iv (10 mg/kg) Compound 4, 30min, Mean
[15] = iv (10 mg/kg) Compound 4, 30min, individual mice, 10 mg/kg
[16] = iv (10 mg/kg) Compound 4, 1h, Mean
[17] = iv (10 mg/kg) Compound 4, 1h, individual mice
[18] = iv (10 mg/kg) Compound 4, 3h, Mean
[19] = po (50 mg/kg) Compound 4, 5min, Mean
[20] = po (50 mg/kg) Compound 4, 5min, individual mice, 50 mg/kg
[21] = po (50 mg/kg) Compound 4, 15min, Mean
[22] = po (50 mg/kg) Compound 4, 15min, individual mice, 50 mg/kg
[23] = po (50 mg/kg) Compound 4, 30min, Mean
[24] = po (50 mg/kg) Compound 4, 30min, individual mice, 50 mg/kg
[25] = po (50 mg/kg) Compound 4, 1h, Mean
[26] = po (50 mg/kg) Compound 4, 1h, individual mice, 50 mg/kg
[27] = po (50 mg/kg) Compound 4, 3h, Mean
[28] = po (50 mg/kg) Compound 4, 8h, Mean
[29] = po (50 mg/kg) Compound 4, 8h, individual mice

AUC0-t ([1]; Brain, iv (10mg/kg) Compound 4): 133 ng·h/g
Fold (AUCtissue/AUCplasma ) ([1]; Brain, iv (10mg/kg) Compound 4): 2.49
AUC0-t [1, 2]: 403 ng·h/g
Fold (AUCtissue/AUCplasma ) [1, 2]: 1.67
AUC0-t ([1]; Liver, iv (10mg/kg) Compound 4): 70 ng·h/g
Fold (AUCtissue/AUCplasma ) ([1]; Liver, iv (10mg/kg) Compound 4): 1.32
AUC0-t [1, 3]: 541 ng·h/g
Fold (AUCtissue/AUCplasma ) [1, 3]: 2.24
AUC0-t ([1]; Lung, iv (10mg/kg) Compound 4): 13 ng·h/g
Fold (AUCtissue/AUCplasma ) ([1]; Lung, iv (10mg/kg) Compound 4): 0.24
AUC0-t ([1]; Lung, po (50 mg/kg) Compound 4): 80 ng·h/g
Fold (AUCtissue/AUCplasma ) ([1]; Lung, po (50 mg/kg) Compound 4): 0.33
AUC0-t [1, 4]: 17 ng·h/g
Fold (AUCtissue/AUCplasma ) [1, 4]: 0.32
AUC0-t [1, 5]: 136 ng·h/g
Fold (AUCtissue/AUCplasma ) [1, 5]: 0.56
AUC0-t [1, 6]: 47 ng·h/g
Fold (AUCtissue/AUCplasma ) [1, 6]: 0.88
AUC0-t [1, 7]: 675 ng·h/g
Fold (AUCtissue/AUCplasma ) [1, 7]: 2.80
Concentration of Compound 1 in Liver [1, 8]: 139.0 ng/g
Concentration of Compound 1 in the Lung [1, 8]: 38.9 ng/g
Concentrations of Compound 1 in Brain Tissue [1, 8]: 350 ng/g
Concentrations of Compound 1 in Pancreatic Tissue [1, 8]: 64.3 ng/g
Concentrations of Compound 1 in Rectum [1, 8]: 85.5 ng/g
Concentration of Compound 1 in Liver [1, 9]: 223 ng/g and 113 ng/g and 81.1 ng/g
Concentrations of Compound 1 in Brain Tissue [1, 9]: 356 ng/g and 271 ng/g and 422 ng/g
Concentrations of Compound 1 in Pancreatic Tissue [1, 9]: 78.6 ng/g and 68.3 ng/g and 46.1 ng/g
Concentrations of Compound 1 in Rectum [1, 9]: 85.6 ng/g and 113 ng/g and 57.9 ng/g
Concentration of Compound 1 in Liver [1, 10]: 117.5 ng/g
Concentration of Compound 1 in the Lung [1, 10]: 36.2 ng/g
Concentrations of Compound 1 in Brain Tissue [1, 10]: 225 ng/g
Concentrations of Compound 1 in Pancreatic Tissue [1, 10]: 43.3 ng/g
Concentrations of Compound 1 in Rectum [1, 10]: 101 ng/g
Concentration of Compound 1 in Liver [1, 11]: 101 ng/g and 72.6 ng/g and 179 ng/g
Concentrations of Compound 1 in Rectum [1, 11]: 143 ng/g and 79.1 ng/g and 80.8 ng/g
Concentration of Compound 1 in Liver [1, 12]: 57.6 ng/g
Concentration of Compound 1 in the Lung [1, 12]: 15.24 ng/g
Concentrations of Compound 1 in Brain Tissue [1, 12]: 170 ng/g
Concentrations of Compound 1 in Pancreatic Tissue [1, 12]: 16.9 ng/g
Concentrations of Compound 1 in Rectum [1, 12]: 48.0 ng/g
Concentration of Compound 1 in Liver [1, 13]: 38 ng/g and 72.6 ng/g and 62.1 ng/g
Concentrations of Compound 1 in Pancreatic Tissue [1, 13]: 22.4 ng/g
Concentrations of Compound 1 in Rectum [1, 13]: 35.0 ng/g and 54.0 ng/g and 55.1 ng/g
Concentration of Compound 1 in Liver [1, 14]: 32.3 ng/g
Concentration of Compound 1 in the Lung [1, 14]: 4.73 ng/g
Concentrations of Compound 1 in Brain Tissue [1, 14]: 22.5 ng/g
Concentrations of Compound 1 in Pancreatic Tissue [1, 14]: 11.67 ng/g
Concentrations of Compound 1 in Rectum [1, 14]: 50.27 ng/g
Concentration of Compound 1 in Liver [1, 15]: 24.9 ng/g and 42.5 ng/g and 29.4 ng/g
Concentrations of Compound 1 in Brain Tissue [1, 15]: 25.8 ng/g and 16.1* ng/g and 25.5 ng/g
Concentration of Compound 1 in Liver [1, 16]: 17.4 ng/g
Concentration of Compound 1 in the Lung [1, 16]: 5.39 ng/g
Concentrations of Compound 1 in Brain Tissue [1, 16]: 32.9 ng/g
Concentrations of Compound 1 in Pancreatic Tissue [1, 16]: 0.942 ng/g
Concentrations of Compound 1 in Rectum [1, 16]: 8.19 ng/g
Concentration of Compound 1 in the Lung [1, 17]: 5.39* ng/g
Concentrations of Compound 1 in Pancreatic Tissue [1, 17]: 0.942* ng/g
Concentration of Compound 1 in Liver ([1]; iv (10 mg/kg) Compound 4, 1h, individual mice, 10 mg/kg): 14.5* ng/g (2×) and 23.1 ng/g
Concentration of Compound 1 in Liver [1, 18]: 3.21 ng/g
Concentrations of Compound 1 in Brain Tissue [1, 18]: 0.86 ng/g
Concentrations of Compound 1 in Brain Tissue ([1]; iv (10 mg/kg) Compound 4, 3h, individual mice): 0.863* ng/g
Concentration of Compound 1 in Liver [1, 19]: 1126.0 ng/g
Concentration of Compound 1 in the Lung [1, 19]: 72.3 ng/g
Concentrations of Compound 1 in Brain Tissue [1, 19]: 368 ng/g
Concentrations of Compound 1 in Pancreatic Tissue [1, 19]: 133 ng/g
Concentrations of Compound 1 in Rectum [1, 19]: 96 ng/g
Concentration of Compound 1 in Liver [1, 20]: 1090 ng/g and 898 ng/g and 1390 ng/g
Concentration of Compound 1 in the Lung [1, 20]: 55.2 ng/g and 78.7 ng/g and 83 ng/g
Concentrations of Compound 1 in Brain Tissue [1, 20]: 245 ng/g and 414 ng/g and 446 ng/g
Concentrations of Compound 1 in Pancreatic Tissue [1, 20]: 158 ng/g and 61.1 ng/g and 180 ng/g
Concentrations of Compound 1 in Rectum [1, 20]: 80.3 ng/g and 101 ng/g and 107 ng/g
Concentration of Compound 1 in Liver [1, 21]: 388.0 ng/g
Concentration of Compound 1 in the Lung [1, 21]: 32.9 ng/g
Concentrations of Compound 1 in Brain Tissue [1, 21]: 416 ng/g
Concentrations of Compound 1 in Pancreatic Tissue [1, 21]: 89.8 ng/g
Concentrations of Compound 1 in Rectum [1, 21]: 78.4 ng/g
Concentration of Compound 1 in Liver [1, 22]: 460.0 ng/g and 417.0 ng/g and 287 ng/g
Concentrations of Compound 1 in Brain Tissue [1, 22]: 507 ng/g and 441 ng/g and 300 ng/g
Concentrations of Compound 1 in Pancreatic Tissue [1, 22]: 73.6 ng/g and 97.4 ng/g and 98.4 ng/g
Concentrations of Compound 1 in Rectum [1, 22]: 132 ng/g and 49.8 ng/g and 53.3 ng/g
Concentration of Compound 1 in Liver [1, 23]: 219.7 ng/g
Concentration of Compound 1 in the Lung [1, 23]: 28.0 ng/g
Concentrations of Compound 1 in Brain Tissue [1, 23]: 275 ng/g
Concentrations of Compound 1 in Pancreatic Tissue [1, 23]: 130 ng/g
Concentrations of Compound 1 in Rectum [1, 23]: 177 ng/g
Concentration of Compound 1 in Liver [1, 24]: 147 ng/g and 206 ng/g and 306 ng/g
Concentrations of Compound 1 in Brain Tissue [1, 24]: 268 ng/g and 209 ng/g and 348 ng/g
Concentration of Compound 1 in Liver [1, 25]: 55.9 ng/g
Concentration of Compound 1 in the Lung [1, 25]: 32 ng/g
Concentrations of Compound 1 in Brain Tissue [1, 25]: 77.5 ng/g
Concentrations of Compound 1 in Pancreatic Tissue [1, 25]: 27.5 ng/g
Concentrations of Compound 1 in Rectum [1, 25]: 27.3 ng/g
Concentration of Compound 1 in Liver [1, 26]: 59.8 ng/g and 46 ng/g and 61.9 ng/g
Concentration of Compound 1 in the Lung [1, 26]: 38.6 ng/g and 31.5 ng/g and 25.6 ng/g
Concentrations of Compound 1 in Brain Tissue [1, 26]: 107 ng/g and 65.4 ng/g and 60.0 ng/g
Concentrations of Compound 1 in Pancreatic Tissue [1, 26]: 28.0 ng/g and 29.0 ng/g and 25.6 ng/g
Concentrations of Compound 1 in Rectum [1, 26]: 36.6 ng/g and 31.1 ng/g and 14.3* ng/g
Concentration of Compound 1 in Liver [1, 27]: 35.3 ng/g
Concentration of Compound 1 in the Lung [1, 27]: 14 ng/g
Concentrations of Compound 1 in Brain Tissue [1, 27]: 11.0 ng/g
Concentrations of Compound 1 in Pancreatic Tissue [1, 27]: 17.9 ng/g
Concentrations of Compound 1 in Rectum [1, 27]: 144 ng/g
Concentrations of Compound 1 in Pancreatic Tissue ([1]; po (50 mg/kg) Compound 4, 3h, individual mice, 50 mg/kg): 23.4 ng/g and 12.4* ng/g
Concentration of Compound 1 in Liver [1, 28]: 17.3 ng/g
Concentrations of Compound 1 in Brain Tissue [1, 28]: 12.9 ng/g
Concentrations of Compound 1 in Rectum [1, 28]: 16.8 ng/g
Concentration of Compound 1 in Liver [1, 29]: 17.3* ng/g
Concentrations of Compound 1 in Brain Tissue [1, 29]: 12.9* ng/g
Concentrations of Compound 1 in Rectum [1, 29]: 16.8* ng/g
IC50 (H520): 1.79 µM
SMILES: C=C1C(=O)OC2C1CCC(CC(F)(F)F)=CCCC1(C)OC21 (stereo not drawn)
